SMILES strings stand for the structures. The whole screen tested about 210,000 compounds, of which about 880 (0.42%) were called active. Shown is part of a subset that was picked to be rich in actives. Unmarked numbers belong to inactive results.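 The calls were made as follows: active = replicate mean at 85% of control or lower with very high polarization wells dropped (limit read from the data); inactive = the rest.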

Protein sequences, listed by entry. Tags and fused reporters are not part of them.
UniProt P08753, whole entry, looked up: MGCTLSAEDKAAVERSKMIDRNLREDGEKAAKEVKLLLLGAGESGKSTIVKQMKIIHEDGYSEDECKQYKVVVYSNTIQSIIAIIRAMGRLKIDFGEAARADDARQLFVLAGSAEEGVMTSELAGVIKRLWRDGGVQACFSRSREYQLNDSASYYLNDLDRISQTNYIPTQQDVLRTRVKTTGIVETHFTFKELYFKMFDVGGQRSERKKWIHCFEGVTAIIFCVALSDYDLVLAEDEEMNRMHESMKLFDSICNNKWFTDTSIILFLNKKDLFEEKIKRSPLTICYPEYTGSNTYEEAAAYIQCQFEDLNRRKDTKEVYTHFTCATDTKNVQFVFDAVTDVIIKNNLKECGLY

The target in this assay is Guanine nucleotide-binding protein G(i) subunit alpha-3 (Rattus norvegicus) (UniProt P08753). Description: inhibitors of GIV peptide binding to Galpha-i3, primary screen, biochemical, fluorescence polarization, FITC-GIV GBA peptide, rat Galphai3 (AID 1224905).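 Also: lower values mean more displacement of the GIV peptide from Galpha-i3.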 The note with it: 90 min, active compounds read low, scaled: aluminum fluoride 0%, vehicle 100%.
On to `CN(C)/C=C/c1nc(C(F)(F)F)c(C#N)s1`, for which the percent of control (FP) is 20.7% (active).

On to `O=C(Nc1ccc(-c2nc3ccccc3o2)cc1)C1COc2ccccc2O1` (centres undefined), for which the percent of control (FP) was 140%.

Regarding `Cc1nc2ccc(S(=O)(=O)NCC(=O)Nc3nccs3)cc2s1`, the percent of control (FP) is 103%.

Consider `O=C(CSc1ncnc2ccccc12)Nc1nc2ccccc2s1`, for which the percent of control (FP) is 102%.

Consider `CCS(=O)(=O)N1CCC2(CC1)Nc1ccc(Cl)cc1-n1cccc12`, for which the percent of control (FP) is 105%.

`CC(C)c1cc(C2CCCN2Cc2ccc(Br)cc2)no1` (centres undefined): the percent of control (FP) is 102%.

Take `CC(=O)Oc1cccc2c1C(=O)C=CC2=O`: the percent of control (FP) was 77.8% (active).

`CC(=O)Oc1ccc(OC(C)=O)c2c1C1C=CC2CC1`: the percent of control (FP) was 101%.

Take `CC(=O)Oc1ccccc1C(=O)N1CCN(c2ccccc2F)CC1`: the percent of control (FP) was 101%.

`CCc1cc(C2CCCN2C(=O)NCC2CCCO2)on1` (centres undefined): the percent of control (FP) was 106%.

For `O=C(NCc1ccccc1Cl)c1ccc2nc(N3CCOCC3)sc2c1`, the percent of control (FP) is 104%.

As for `CCOC(=O)C1(C)/C(=N\Nc2ccc(Br)cc2)C(=O)C(=O)N1c1ccccc1` (centres undefined), the percent of control (FP) was 101%.

With `CCC(NC(=O)C1CC(=O)N(c2ccc3c(c2)CCN3C(C)=O)C1)c1cccs1` (centres undefined), the percent of control (FP) was 102%.

Regarding `CCC(=O)N1CCc2cc(N3CC(C(=O)N4CCN(C(C)C)CC4)CC3=O)ccc21` (centres undefined), the percent of control (FP) was 72.7% (active).

For `CC(=O)N1CCc2cc(N3CC(C(=O)N4CCC5(CC4)OCCO5)CC3=O)ccc21` (centres undefined), the percent of control (FP) is 107%.

For the compound `CCSCCOC(=O)C1=C(C)NC2=C(C(=O)CC(c3ccccc3)C2)C1c1ccc(OC)cc1OC` (centres undefined), the percent of control (FP) was 105%.

Take `Cc1cc(Nc2cccc(C(F)(F)F)c2)nc2ccc(NC(=O)CSc3ccncc3)cc12`: the percent of control (FP) is 102%.

For the compound `COc1ccc(N=C2NC(=O)/C(=C\c3ccc(OCC(C)C)cc3)S2)cc1`, the percent of control (FP) was 107%.

In the case of `Cc1cc2c(cc3n2CC(C)(C(=O)NC2CCCCC2)N(Cc2ccc(F)cc2)C3=O)o1` (centres undefined), the percent of control (FP) is 102%.

With `CCn1c(C)nc2c1C(=O)c1ccccc1C2=O`, the percent of control (FP) was 102%.

Regarding `Cc1cc2c3c(ccc(N)c3n1)C(=O)c1ccccc1-2`, the percent of control (FP) is -32.2% (active).

With `Nc1nnc2c(n1)-c1ccccc1C2=O`, the percent of control (FP) is 100%.

For the compound `S=C(Cc1ccc(CC(=S)N2CCOCC2)cc1)N1CCOCC1`, the percent of control (FP) was 105%.

As for `O=C(Nc1ccc(O)c(-c2nc3ccccc3s2)c1)c1cccc(N2C(=O)CCC2=O)c1`, the percent of control (FP) is 104%.

With `CC1CCN(C(=O)CSc2nnc3c(n2)[nH]c2ccccc23)C(C)C1` (centres undefined), the percent of control (FP) was 108%.

Take `O=C1/C(=C/c2ccc(-c3cc(Cl)ccc3Cl)o2)C=C(c2ccccc2)N1c1ccc(F)cc1`: the percent of control (FP) was 112%.

In the case of `CCOc1ccc(NC(=O)c2cn(C)c3c(c(C)nn3-c3ccc(F)cc3)c2=O)cc1`, the percent of control (FP) is 101%.

With `O=C(NN=c1c(=O)c2ccccc2c1=O)c1ccncc1`, the percent of control (FP) was 76.9% (active).

As for `CC(C)/C=N/NC(=O)c1ccccc1`, the percent of control (FP) is 101%.

In the case of `CC(=O)Nn1nc2c(n1)C(=NNC(=O)c1ccccc1)c1nn(NC(C)=O)nc1C2=NNC(=O)c1ccccc1`, the percent of control (FP) was 99.9%.

Turning to `O=C(Nc1c(F)cc(F)cc1Br)c1cc(S(=O)(=O)N2CCN(c3ccccc3)CC2)ccc1F`, the percent of control (FP) was 106%.

As to `Cc1ccc(S(=O)(=O)N2CSC[C@@H]2C(=O)NCc2csc(C)n2)cc1`, the percent of control (FP) was 105%.

For `O=C(NCc1ccccn1)c1cc(-c2ccccc2O)no1`, the percent of control (FP) was 97.4%.

`CCn1c(=O)c(=O)n(CC(=O)NCCC2=CCCCC2)c2cccnc21`: the percent of control (FP) was 101%.

`N#CC(C#N)=C(C#N)/C=C/n1c2ccccc2c2ccccc21`: the percent of control (FP) was 69.8% (active).

In the case of `Cn1c(=O)c(C#N)c(O)c2ccccc21`, the percent of control (FP) is 103%.

As for `COc1ccc(Cl)cc1C(=O)Nc1cccc(-c2nc3cccnc3s2)c1`, the percent of control (FP) is 108%.

Consider `COC(=O)C1C(=O)NC(SCC(=O)Nc2ccccc2C)=C(C#N)C1c1ccc(Cl)cc1Cl` (centres undefined), for which the percent of control (FP) is 104%.

Take `COc1cc(/C=C2/N=C(c3ccccc3)N(C)C2=O)cc(OC)c1OC`: the percent of control (FP) is 106%.

Consider `COc1cccc(C2=N/C(=C\c3ccccc3OC)C(=O)N2c2cccc(F)c2)c1`, for which the percent of control (FP) was 62.3% (active).

On to `COc1cccc(C2=N/C(=C\c3ccccc3OC)C(=O)N2c2ccc(C)cc2)c1`, for which the percent of control (FP) was 94%.

For `COc1ccc(NC(=O)C2CCCN(c3nc4ncccc4n4cccc34)C2)cc1` (centres undefined), the percent of control (FP) was 128%.

With `CC1CCN(C(=O)Cn2nc(Cc3ccncc3)c3ccccc3c2=O)CC1`, the percent of control (FP) is 101%.

With `Cn1cccc1/C=C1\C(=O)NC(=S)N(c2ccccc2)C1=O`, the percent of control (FP) was 80.1% (active).

Consider `O=C1NC(=O)N(c2ccccc2)C(=O)C1=Cc1c2ccccc2cc2ccccc12`, for which the percent of control (FP) was 101%.

Turning to `O=C1NC(=S)N(c2ccc(Br)cc2)C(=O)/C1=C/c1ccsc1`, the percent of control (FP) was 94.1%.

Regarding `Cc1ccc2c(c1)N(C(=O)CSc1nc3ccccc3o1)C(C)(C)c1ssc(=S)c1-2`, the percent of control (FP) was 101%.

For the compound `COc1ccc(CNC(=O)c2cnc(N(C)C)nc2C)cc1`, the percent of control (FP) was 99%.

`CCc1nn(CC(=O)NCc2ccc(OC)c(OC)c2)c(=O)c2cc3occc3n12`: the percent of control (FP) is 103%.

In the case of `O=C(NCCCN1CCOCC1)C1CCN(c2cncnc2N2CCCCC2)CC1`, the percent of control (FP) is 113%.

In the case of `CSc1ccc(C2C=C(c3ccc(Cl)s3)Nc3ncnn32)cc1` (centres undefined), the percent of control (FP) was -22.3% (active).

With `CC1=C(C(N)=O)C(c2ccc(Br)cc2)n2ncnc2N1` (centres undefined), the percent of control (FP) was 111%.

Regarding `CC1=C(C(=O)Nc2ccccc2Cl)C(c2cccs2)n2ncnc2N1` (centres undefined), the percent of control (FP) is 98%.

For the compound `CSc1ccc(C2C=C(c3cccs3)Nc3ncnn32)cc1` (centres undefined), the percent of control (FP) was -22.3% (active).

For the compound `COc1cccc(C2=CC(c3cccc(OC)c3)n3ncnc3N2)c1` (centres undefined), the percent of control (FP) was 96%.

Regarding `Cc1ccc(-n2nc3c(c2NC(=O)c2ccc(S(=O)(=O)N4CCCC4)cc2)CSC3)c(C)c1`, the percent of control (FP) was 102%.

`O=C(c1cc2c(s1)-c1ccsc1CC2)N1CCN(c2ccccn2)CC1`: the percent of control (FP) was 109%.

`COc1ccc2oc(-c3noc(-c4ccnn4C)n3)c(C)c2c1`: the percent of control (FP) was 106%.

With `Cc1cc(C)n(CC(=O)NC2CCCC2)c(=O)c1S(=O)(=O)c1ccc(Cl)cc1`, the percent of control (FP) is 104%.

`CCN1CCN(C(=O)c2sc3nc(C)nc(N4CCN(c5ccccn5)CC4)c3c2C)CC1`: the percent of control (FP) is 104%.

In the case of `COCCNC(=O)c1ccc(Cn2c(SCC(=O)NCc3ccccc3)nc3ccc(Br)cc3c2=O)cc1`, the percent of control (FP) was 97.2%.

Turning to `CCOC(=O)c1ccc(-c2ccc(/C=C(\C#N)C(=O)Nc3ccc(C)cc3)o2)cc1`, the percent of control (FP) is 99.2%.

Take `N#C/C(=C\c1ccc(-c2ccccc2)o1)C(=O)Nc1ccccc1`: the percent of control (FP) was 36.5% (active).

On to `CCOC(=O)c1ccc(-c2ccc(/C=C(\C#N)C(=O)Nc3ccc(OCC)cc3)o2)cc1`, for which the percent of control (FP) was 102%.

Turning to `CCNC(=O)N1CCCC(c2nc(C(C)C)cs2)C1` (centres undefined), the percent of control (FP) was 105%.

With `O=C(CN1CCN(C(=O)c2cccc(Cl)c2)CC1)Nc1nnc(-c2ccccc2)s1`, the percent of control (FP) is 98.2%.

For `CCOc1ccc(NC(=O)Cn2c(SCC)nc3ccccc32)cc1`, the percent of control (FP) is 98.2%.

With `Cc1cc2nc3c(=O)n(Cc4ccccc4)c(=O)[nH]c3nc2cc1N`, the percent of control (FP) is 72.2% (active).

`Cc1cc2nc3[nH]c4ccccc4c3nc2cc1C`: the percent of control (FP) is 109%.

Turning to `O=c1[nH]c2c(c(=O)n1Cc1ccccc1)CCC2`, the percent of control (FP) is 110%.

Consider `Cc1sc(NC(=O)c2ccccc2)c(C(Nc2ccccn2)c2cccnc2)c1C` (centres undefined), for which the percent of control (FP) is 102%.

As to `Fc1ccccc1CSc1nccn2nc(-c3ccc(Br)cc3)cc12`, the percent of control (FP) is 111%.

For `Cc1ccc(C2(c3ccc(C)cc3)CC2C(=O)Nc2cccc(C(F)(F)F)c2)cc1` (centres undefined), the percent of control (FP) was 104%.

Take `Cc1ccc(OCCn2cc(/C=C3/C(=O)Nc4cc(Cl)ccc43)c3ccccc32)cc1C`: the percent of control (FP) is 35.2% (active).

`Cc1ccc(OCCn2cc(C(=O)c3ccccc3)c3ccccc32)cc1`: the percent of control (FP) is 99.6%.

On to `COc1ccccc1OCCCn1cc(/C=C2/C(=N)N3C=CSC3=NC2=O)c2ccccc21`, for which the percent of control (FP) is 103%.

For `CCc1cc2c(NC3CCCCC3)ncnc2s1`, the percent of control (FP) was 117%.

Turning to `O=c1sc2ccccc2c2nc[nH]c12`, the percent of control (FP) was 99.7%.

On to `O=C(Cn1c2c(c(-c3ccccc3Cl)cc1=O)CCC2)NC1CCCCC1`, for which the percent of control (FP) is 108%.

On to `CNC(=O)CSc1nnc2[nH]c(=O)cc(C)n12`, for which the percent of control (FP) is 108%.

As for `N#Cc1c(N2CCCCCC2)ncc2cc3ccccc3nc12`, the percent of control (FP) was -18.1% (active).

Turning to `Cc1c(Cc2ccccc2)c(N2CCCCC2)n2c(nc3ccccc32)c1C#N`, the percent of control (FP) is 146%.

For `Cc1cc(N2CCN(c3ccccc3)CC2)n2c(nc3ccccc32)c1C#N`, the percent of control (FP) was 99.6%.

Regarding `Cc1cc(C(=O)NCCN2CCOCC2)c2c(=O)n(C)c(=O)n(C)c2n1`, the percent of control (FP) was 105%.

In the case of `CC(=O)N[C@H]1[C@H](Oc2ccc(C)cc2)O[C@H](COC(C)=O)[C@@H](OC(C)=O)[C@@H]1OC(C)=O`, the percent of control (FP) is 131%.

Take `CCOC(=O)CSc1ncn[nH]1`: the percent of control (FP) was 102%.

`CCn1nc(C)cc1-c1nnc(SCC(=O)c2ccc(C)cc2)o1`: the percent of control (FP) is 108%.

With `CCN(CC)c1ccc2cc(-c3csc(-c4nc(-c5cc6ccc(N(CC)CC)cc6oc5=O)cs4)n3)c(=O)oc2c1`, the percent of control (FP) is 109%.

Turning to `CCN(CC)c1ccc2oc(=O)c(C)nc2c1`, the percent of control (FP) was -40.7% (active).

Consider `CCN(CC)c1ccc2cc(C(=O)O)c(=O)oc2c1`, for which the percent of control (FP) was 115%.

Take `Cc1c(C(=O)NCC(c2ccccc2)c2c[nH]c3ccccc23)oc2ccc(Cl)cc12` (centres undefined): the percent of control (FP) was 105%.

As for `O=C1NC(=O)/C(=C/c2ccc(-c3ccc([N+](=O)[O-])cc3Br)o2)S1`, the percent of control (FP) was 62.8% (active).

On to `O=C1N/C(=C/c2ccc(-c3ccc([N+](=O)[O-])cc3Br)o2)C(=O)N1Cc1ccc(Cl)cc1`, for which the percent of control (FP) is 146%.

Regarding `N=C1S/C(=C\c2ccc(-c3ccccc3[N+](=O)[O-])o2)C(=O)N1c1ccc2c(c1)OCO2`, the percent of control (FP) was 114%.
